Literature values as cited in PMC2675940 (Journal of medicinal chemistry, 2008).

Amino acid sequences for entries named in this document (tags omitted).
UniProt P25103, whole entry: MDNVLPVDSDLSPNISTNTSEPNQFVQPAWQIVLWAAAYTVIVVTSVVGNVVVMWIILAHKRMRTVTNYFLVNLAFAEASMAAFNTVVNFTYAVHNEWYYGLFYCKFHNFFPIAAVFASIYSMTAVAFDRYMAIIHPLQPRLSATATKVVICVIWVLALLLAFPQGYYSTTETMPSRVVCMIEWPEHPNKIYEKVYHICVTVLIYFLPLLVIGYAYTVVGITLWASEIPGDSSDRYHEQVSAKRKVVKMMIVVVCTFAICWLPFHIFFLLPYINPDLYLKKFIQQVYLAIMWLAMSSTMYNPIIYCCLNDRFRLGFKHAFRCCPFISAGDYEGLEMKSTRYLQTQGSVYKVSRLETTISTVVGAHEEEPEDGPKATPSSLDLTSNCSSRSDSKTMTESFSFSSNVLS

Target: human NK1 receptor (hNK1) (Homo sapiens, UniProt P25103)

CC(=O)N[C@@H](Cc1c[nH]c2ccccc12)C(=O)OCc1cc(C)cc(C)c1
fold reduced affinity for the human NK1 receptor as compared to 4: 16
